# Measured affinities in a library of Ab-14 heavy chain variants

Antigen: PDVDLGDISGINAS, a 14-residue peptide of the SARS-CoV-2 spike HR2 region.

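These sequences belong to a second round, designed from the earlier measurements on random variants of the parent. Several design methods are mixed in this list. Affinity was read by AlphaSeq, a pooled yeast mating assay with surface-displayed partners. The frequency of each diploid, read from paired DNA barcodes, reflects how well the two displayed proteins bind. A regression on co-assayed BCL2-family reference pairs converts the normalised counts of each replicate to an apparent Kd. Mating was done six times.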

Ab-14 is the parent antibody, in scFv form: VH, then a 15-residue (Gly4Ser)3 linker, then VL. The light chain is unchanged in all variants.
VH: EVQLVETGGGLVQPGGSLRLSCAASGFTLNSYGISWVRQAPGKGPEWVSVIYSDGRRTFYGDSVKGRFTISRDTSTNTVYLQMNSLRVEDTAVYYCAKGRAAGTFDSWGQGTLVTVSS
VL: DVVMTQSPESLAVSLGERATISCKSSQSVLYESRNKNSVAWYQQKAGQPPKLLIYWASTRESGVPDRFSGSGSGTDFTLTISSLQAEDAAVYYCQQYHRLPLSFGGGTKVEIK

The parent's heavy chain CDRs are GFTLNSYGIS, VIYSDGRRTFYGDSVK, GRAAGTFDS; each variant's own CDRs replace them letter for letter. Each Kd is an estimate from the mating assay, the geometric mean of the replicates in which the pair was seen; lower is stronger. A pair that was not seen in any replicate is written "no signal"; this usually means weak binding, but a binder can also be missed. Entries are sorted by rising average, undetected variants last.

CDR-H1,CDR-H2,CDR-H3,Kd (apparent),detected
GFDLDEYGIS,VIYADGQRKAYADSVK,GNVAGTFDI,210 pM,6 of 6
GFDLNEYGIS,VIYADGRRTVYADSVK,GNQAGTFDV,210 pM,6 of 6
GFDLNEYGIS,VIYADGRRTFYTDSVK,GKAAGTFDQ,240 pM,6 of 6
GFDLNEYGIS,VIYADGMRTAYSDSVK,GNVAGTFDM,240 pM,6 of 6
GFDLNEYGIS,VIYADGRRKAYADKVK,GENAGTFNV,410 pM,6 of 6
GFDLNEYGIS,VIYADGMRTFYSDSVK,GEAAGTFDQ,420 pM,6 of 6
GFDLNEYGIS,VIYADGRRTFYKDSVK,GEAAGTFDL,510 pM,6 of 6
GFDLNEYGIS,VIYADGKRKAYADSVK,GENAGTFDV,530 pM,6 of 6
GFDLDEYGIS,VIYADGQRTFYADSVK,GENAGTFDL,550 pM,6 of 6
GFDLNEYGIS,VIYADGVRTFYVDSVK,GETAGTFEI,580 pM,6 of 6
GFDLNEYGIS,VIYADGKRTFYTDSVK,GNAAGTFDV,620 pM,6 of 6
GFDLDEYGIS,VIYADGVRTAYSDSVK,GNQAGTFDL,640 pM,6 of 6
GFDLNEYGIS,VIYADGRRTSYADSVK,GEVAGTFDV,650 pM,6 of 6
GFTLNSYGIS,VMYSDGRRTFYTDSVK,GRAAGTFDS,700 pM,3 of 6
GFSLNEYGIS,VIYSDGRRTFYIDSVK,GRAAGTFDS,750 pM,6 of 6
GFSLNSYGIS,VIYADGRRTFYGDQVK,GRAAGTFDS,770 pM,3 of 6
GFQLNSYGIS,VIYSDGRRTAYGDSVK,GQAAGTFDS,770 pM,6 of 6
GFDLNEYGIS,VIYADGRRTYYADSVK,GENAGTFDI,800 pM,6 of 6
GFDLNEYGIS,VIYADGRRTSYIDSVK,GEIAGTFDV,800 pM,6 of 6
GFDLNSYGIS,VIYSDGRRTFYGDEVK,GRQAGTFDS,920 pM,5 of 6
GFTLNSYGIS,VIYADGRRTFYTDSVK,GQAAGTFDS,980 pM,6 of 6
GFELNEYGIS,VIYSDGRRTFYHDSVK,GRTAGTFDS,1.1 nM,6 of 6
GFDLNEYGIS,VIYADGRRTFYADDVK,GENAGTFDF,1.2 nM,6 of 6
GFDLNEYGIS,VIYADGRRTFYADSVK,GEHAGSFDI,1.3 nM,6 of 6
GFTLNEYGIS,VIYSDGRRTFYSDSVK,GHAAGTFDN,1.3 nM,6 of 6
GFDLNEYGIS,VIYADGKRTAYSDSVK,GENAGTFDQ,1.4 nM,6 of 6
GFDLNEYGIS,VIYADGKRTAYADSVK,GNNAGTFDQ,1.5 nM,6 of 6
GFSLNSYGIS,VIYSDGRRTFYKDSVK,GWTAGTFDS,1.5 nM,6 of 6
GFALNDYGIS,VIYSDGRRTFYGDSVK,GTAAGTFDS,2.0 nM,6 of 6
GFLLNSYGIS,VIYSDGRRTFYADSVK,GKTAGTFDS,2.1 nM,6 of 6
GFNLDEQGIS,VIYADGMRTVYSQNVK,GQNVEFTVF,2.6 nM,2 of 6
GFTLEEYGIS,VIYSDGRRTFYGDSVK,GRAAGTFDQ,3.4 nM,6 of 6
GFDIEEYGIS,VIYADGDRANYDQKVK,GTIAGTLDM,3.8 nM,6 of 6
GFQLNSYGIS,VIYSDGRRTFYHDSVK,GRTAGTFDS,3.9 nM,4 of 6

Further variants, results first:

Kd (apparent),detected,CDR-H1,CDR-H2,CDR-H3
4.6 nM,6 of 6,GFNLDEYGIS,VIYADGRRTFYADNVK,GEAGGTFDI
4.6 nM,6 of 6,GFELNNYGIS,VIYSDGRRTFYGDSVK,GQAAGTFDT
4.8 nM,6 of 6,GFSLNEYGIS,VIYSDGRRTFYGDSVK,GKAAGTFDE
5.7 nM,2 of 6,GFTLHQYGIS,VIYSDGRRTFESDSVK,GRAAGFFDS
5.7 nM,6 of 6,GFDLDEYGIS,VIYADGRRTFYVDSVK,GNVAGTFDV
8.3 nM,6 of 6,GFTLNSYGIS,VIYSDGRRTFYSDSVK,GQLAGTFDR
8.3 nM,6 of 6,GFTLNDYGIS,VIYSDGRRTFYGDSVK,GRHAGTFDI
8.9 nM,4 of 6,GFDLNEYGIS,VIYADGKRTAYSDSVK,GNQAGTFDL
9.2 nM,6 of 6,GFDLNEYGIS,VIYADGRRTAYSDKVK,GNVAGTFDV
20 nM,5 of 6,GFSLNSYGIS,VIYSDGRRTFYIDSVK,GKQAGTFDS
22 nM,6 of 6,GFTLNSYGIS,VIYSDGRRTFYGDSVK,GSIAGTFDS
31 nM,5 of 6,GFTLNSYGIS,VIYSDGRRTFYGDSVK,GWVAGTFDF
31 nM,2 of 6,GFTLNSYGIS,VIYSDGRRTSYGQSVK,GRNAGTFDQ
40 nM,6 of 6,GFPLNDYGIS,VIYSDGRRTFYKDSVK,GRAAGTFDS
56 nM,6 of 6,GFSLNSYGIS,VIYSDGRRTFYGDSVK,GNAAGTFDD
100 nM,5 of 6,KFGLNSYGIS,VIYSDGRRTFYADSVK,GRTAGTFDS
130 nM,2 of 6,GFWLNSYGIS,VIYSDGRRTFYGDSVK,GREAGTFDS
210 nM,1 of 6,GFDLEKYGIS,VIYADGRRSVYADNVK,GMLGATNGF
no signal,0 of 6,GFELQEYGIS,VIYADGMRTAYSDNVK,GDAVGIFHV
no signal,0 of 6,GFTLNEYGIS,VIYSDGRRTAYTDSVK,GRVDGTFSS
no signal,0 of 6,GEVLDEYGIS,VIYADGQRVQYTDNVK,GLLTGAFDM
no signal,0 of 6,RFTLNSYGCS,VIYMDGRRTFYGDSVK,GRAAGTFDW
no signal,0 of 6,GFSLDEYGIS,VIYADGKRQVYADTVK,GNKDMTFDI
no signal,0 of 6,GFDLNEYGIS,VIYADGMRTAYSDSVK,GNQAGTFDV
no signal,0 of 6,GFTLNSGGIS,VIYSDGRRTFYGDSVK,GRAAGTFDV
no signal,0 of 6,GFTLNSQGIS,VIYSDGRRTFYSDSVK,GRAHGTFNV
no signal,0 of 6,GFTLNSYGIS,VIYADGRRTFYGDSVK,GRAARTNAS
no signal,0 of 6,GFDLNSYGIS,VIYSDGRRTFYADSVK,GRTAGKFDS
no signal,0 of 6,GFSLNSYGIS,VIYSDGRRTFYGDSVK,GRAACTFDS
no signal,0 of 6,GKDIDEYGIS,VIYADGIRTAYNDRVK,GNLGIQFDM
no signal,0 of 6,KFSLNEYGIS,VIYSDGRRTFYGDSVK,GKAAGTFDS
no signal,0 of 6,GFNLEEYGIS,VIYADGSRSSYIESVK,GHWNADFIL
no signal,0 of 6,GETLNEYGIS,VIYSDGRRTFYGDSVK,GRAAVTFDQ
no signal,0 of 6,GFTLNEAGIS,VIYSDGRDTFYTDSVK,FRFAGTFDS

Excerpt, the final 10 entries:

| CDR-H1 | CDR-H2 | CDR-H3 | Kd (apparent) | detected |
|---|---|---|---|---|
| GFTLNSGGIS | VIYSDGRRTFYGDSVK | GRAAGTFDV | no signal | 0 of 6 |
| GFTLNSQGIS | VIYSDGRRTFYSDSVK | GRAHGTFNV | no signal | 0 of 6 |
| GFTLNSYGIS | VIYADGRRTFYGDSVK | GRAARTNAS | no signal | 0 of 6 |
| GFDLNSYGIS | VIYSDGRRTFYADSVK | GRTAGKFDS | no signal | 0 of 6 |
| GFSLNSYGIS | VIYSDGRRTFYGDSVK | GRAACTFDS | no signal | 0 of 6 |
| GKDIDEYGIS | VIYADGIRTAYNDRVK | GNLGIQFDM | no signal | 0 of 6 |
| KFSLNEYGIS | VIYSDGRRTFYGDSVK | GKAAGTFDS | no signal | 0 of 6 |
| GFNLEEYGIS | VIYADGSRSSYIESVK | GHWNADFIL | no signal | 0 of 6 |
| GETLNEYGIS | VIYSDGRRTFYGDSVK | GRAAVTFDQ | no signal | 0 of 6 |
| GFTLNEAGIS | VIYSDGRDTFYTDSVK | FRFAGTFDS | no signal | 0 of 6 |

As a blank, each scFv also met three strains without target: over all heavy chain designs, 1% of these pairings were detected, typically at 120 nM and seldom below 7.0 nM. In the paper, a design with two or fewer of six values counts as a poor binder. The range of this assay differs from that of the first round, and the authors advise against merging the two. The parent sequence was in this pool as ten entries: three were never detected, three once, and four in most replicates, with averages from 2.2 nM to 240 nM.

From the AlphaSeq antibody data of Li et al. 2023 (doi:10.1038/s41467-023-39022-2), copy in the FLAb collection.